Literature values as cited in US20220175776A1 (Frequency Therapeutics, Inc., priority 2019, published 2022).

By UniProt entry, the sequences of proteins in these tests, tags left out.
UniProt O75530, whole entry: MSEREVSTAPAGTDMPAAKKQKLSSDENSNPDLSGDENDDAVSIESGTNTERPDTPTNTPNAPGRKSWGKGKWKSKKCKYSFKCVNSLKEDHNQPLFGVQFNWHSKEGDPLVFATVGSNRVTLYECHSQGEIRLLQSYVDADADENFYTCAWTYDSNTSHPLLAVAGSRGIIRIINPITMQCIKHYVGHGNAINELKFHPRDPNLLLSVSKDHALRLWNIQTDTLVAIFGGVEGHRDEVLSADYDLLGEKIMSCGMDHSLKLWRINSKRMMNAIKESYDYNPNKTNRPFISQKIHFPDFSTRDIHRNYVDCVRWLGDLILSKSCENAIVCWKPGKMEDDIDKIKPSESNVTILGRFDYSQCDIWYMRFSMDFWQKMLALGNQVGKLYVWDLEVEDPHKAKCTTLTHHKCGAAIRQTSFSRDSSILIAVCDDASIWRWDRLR
UniProt Q15910, whole entry: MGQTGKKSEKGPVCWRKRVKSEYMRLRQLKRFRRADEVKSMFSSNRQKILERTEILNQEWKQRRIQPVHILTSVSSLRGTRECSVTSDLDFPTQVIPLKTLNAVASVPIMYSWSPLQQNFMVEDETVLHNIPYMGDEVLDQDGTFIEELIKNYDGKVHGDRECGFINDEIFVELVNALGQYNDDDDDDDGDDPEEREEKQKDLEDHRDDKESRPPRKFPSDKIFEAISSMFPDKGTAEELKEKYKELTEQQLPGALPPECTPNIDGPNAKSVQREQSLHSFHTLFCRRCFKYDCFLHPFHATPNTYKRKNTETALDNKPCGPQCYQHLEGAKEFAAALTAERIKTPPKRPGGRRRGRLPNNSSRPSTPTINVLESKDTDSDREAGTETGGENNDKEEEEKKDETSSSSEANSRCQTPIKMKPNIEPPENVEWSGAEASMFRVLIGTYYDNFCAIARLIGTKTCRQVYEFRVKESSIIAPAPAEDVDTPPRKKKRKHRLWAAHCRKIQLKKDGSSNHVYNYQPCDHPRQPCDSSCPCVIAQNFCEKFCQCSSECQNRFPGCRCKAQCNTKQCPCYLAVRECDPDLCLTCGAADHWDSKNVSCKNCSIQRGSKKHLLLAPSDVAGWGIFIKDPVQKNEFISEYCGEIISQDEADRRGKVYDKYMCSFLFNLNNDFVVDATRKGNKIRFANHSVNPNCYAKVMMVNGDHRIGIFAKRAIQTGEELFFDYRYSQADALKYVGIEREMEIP

Target: EZH2 (Homo sapiens, UniProt O75530+Q15910)
Details: Table 7; EED inhibitors; read-out: pKi or IC50 (converted); cited from earlier work

COc1ccc(CCN2CCC(Nc3nc4ccccc4n3Cc3ccc(F)cc3)CC2)cc1 [Astemizole]
IC50: 94 µM
